The source of these data is PubChem BioAssay AID488965 (Broad Institute, 2010).

The entries are a selection whose mix differs from that of the whole data set. Activity calls are given as the source filed them. Rule as the data show it: active = inhibition above about 30% (passing the limit was not always enough); inconclusive = no clear call, values can overlap the other calls.

This assay has as its system PvdQ acylase [Pseudomonas aeruginosa LESB58]. The experiment in a line: P. aeruginosa PvdQ acylase inhibitors, primary screen, biochemical, fluorescence, plate reader and imaging, single point (AID 488965).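 Also: 0% = vehicle neutral wells and 100% = reference inhibitor wells.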 As to conditions: purified PvdQ acylase, at 10 µM, hits give high values.
The inhibition is the relative decrease from the control value, in per cent. As to `CCC(=O)N(c1ccccc1)C1(COC)CCN(CCc2cccs2)CC1`, the inhibition was inactive: 3.87%.

With `CCC(=O)N(c1ccccc1)C1(COC)CCN(CCn2nnn(CC)c2=O)CC1`, the inhibition is inactive: -13.2%.
